Columns and labels:
[1] = system: C-terminally truncated mutant human NK2 receptor; details: prolonged NKA, n=19
[2] = target: wild-type human NK2 receptors (Homo sapiens, UniProt P21452)

By UniProt entry, the sequences of proteins in these tests, tags left out.
UniProt P21452, whole entry: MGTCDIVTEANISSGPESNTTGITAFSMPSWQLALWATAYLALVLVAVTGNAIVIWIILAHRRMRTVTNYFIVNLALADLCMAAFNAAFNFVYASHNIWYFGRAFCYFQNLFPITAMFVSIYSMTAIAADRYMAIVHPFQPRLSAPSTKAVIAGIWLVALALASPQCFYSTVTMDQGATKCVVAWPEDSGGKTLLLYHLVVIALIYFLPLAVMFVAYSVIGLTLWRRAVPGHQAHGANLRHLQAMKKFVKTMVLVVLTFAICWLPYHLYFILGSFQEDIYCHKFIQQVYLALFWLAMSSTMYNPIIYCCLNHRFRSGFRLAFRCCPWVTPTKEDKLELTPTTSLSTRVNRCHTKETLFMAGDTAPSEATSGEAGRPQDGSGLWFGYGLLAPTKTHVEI

Which results are given for neurokinin A [NKA]?
average 50% recovery time of FRET signal [1]: 1365 ± 599 s; average 50% recovery time of translocation response ([2]; prolonged addition of NKA (1 μM), n=25): 83 ± 38 s; decay time of translocation response ([2]; short (10 s) pulses of agonist from puffer pipette, n=60): 45 ± 7 s

— patent US20050048563A1, “Membrane molecule indicator compositions and methods” (Novasite Pharmaceuticals, Inc, priority 2000, published 2005)
